Test: Antioxidant activity assessed as inhibition of Fe2+-induced lipid peroxidation after 15 to 60 mins by TBARS assay relative to control
Format: functional
Parameters: concentration or dose not given beside the values
How it was run: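 Substrate: egg yolk lipoprotein suspension, made by homogenising yolk with an equal volume of phosphate buffer pH 7.4. Compounds were added as 10^-3 mol/mL solution, with 0.7% FeSO4·7H2O to start non-enzymatic peroxidation, at 37 °C. Controls were Fe only and a blank with neither Fe nor compound; tocopheryl acetate was the reference. The supernatant was heated with acidic thiobarbituric acid at 95 °C for 1 h, extracted into n-butanol–pyridine 15:1, and read by optical density.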

First: O=[N+]([O-])c1ncn(CC(O)CCl)c1[N+](=O)[O-] (stereo not drawn)
Second: O=C(CCl)Cn1cnc([N+](=O)[O-])c1[N+](=O)[O-]
The Activity of the first is lower: 56.5% for the first, 63.7% for the second.

For `CC(=O)Cn1c(C)nc([N+](=O)[O-])c1[N+](=O)[O-]`, the Activity was 13.1%.

From ChEMBL document CHEMBL1153876, “Synthesis of some N-substituted nitroimidazole derivatives as potential antioxidant and antifungal agents” (2009)
